# Measured affinities in a library of Ab-14 light chain variants

Reference: Engelhart et al. 2022, doi:10.1038/s41597-022-01779-4. File: FLAb, binding data.

Binding partner: SARS-CoV-2 spike HR2 peptide, sequence PDVDLGDISGINAS.

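The starting antibody came from a phage panning campaign against this peptide. The library (AAYL50) carries one to three amino acid substitutions per variant, with no insertions or deletions. The scFvs were displayed on barcoded MATa yeast, the peptide on MATalpha yeast. After mating in shaken culture at 30 °C for 16 h, diploids were selected and their barcode pairs sequenced. Read counts were normalised to the haploid input and turned into Kd by a linear fit to BCL2-family pairs of known affinity, for each replicate. The assay was run in three technical replicates.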

The variants keep the heavy chain, the linker and the frameworks of Ab-14 (scFv order VH, a (GGGGS)3 linker, VL).
VH: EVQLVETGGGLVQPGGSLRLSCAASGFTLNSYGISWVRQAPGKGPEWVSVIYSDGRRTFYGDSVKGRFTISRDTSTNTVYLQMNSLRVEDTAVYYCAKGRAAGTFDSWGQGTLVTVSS
VL: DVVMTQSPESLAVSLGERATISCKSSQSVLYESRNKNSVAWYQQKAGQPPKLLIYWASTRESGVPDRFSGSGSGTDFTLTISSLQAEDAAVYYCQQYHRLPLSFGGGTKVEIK

Variants are written as CDR1, CDR2 and CDR3 of the light chain (limits as in the source). Parent: KSSQSVLYESRNKNSVA, WASTRES, QQYHRLPLS. Values are log10 of the apparent Kd in nM; lower means stronger binding. An entry "ND" has no value in the source: the pair was not observed among the diploids in that replicate. This suggests poor binding but is not conclusive. As a blank, each scFv also met three strains without target: over library AAYL50, 18% of these pairings were detected, typically at 4.19 and seldom below 2.99. For each scFv, signals with the empty controls are counted beside the result, with their mean in brackets.

{"CDR-L1": "KSSQSVLYESRNKNSVN", "CDR-L2": "WASTVES", "CDR-L3": "PQYHRLPLS", "replicates, log10 nM": "ND / 5.15 / 4.02", "signal with controls": "1/9 (3.31)"}
{"CDR-L1": "KSSQSVLYMSRNKNSVA", "CDR-L2": "WASTRES", "CDR-L3": "QQYHRLPIE", "replicates, log10 nM": "2.13 / 1.57 / 1.24", "signal with controls": "0/9"}
{"CDR-L1": "KSSQSVLYESRNKNSVA", "CDR-L2": "YASTRES", "CDR-L3": "QQYHILPLS", "replicates, log10 nM": "1.00 / 0.95 / 1.07", "signal with controls": "3/9 (3.90)"}
{"CDR-L1": "KSSLSWLYISRNKNSVA", "CDR-L2": "WASTRES", "CDR-L3": "QQYHRLPLS", "replicates, log10 nM": "1.62 / 1.94 / 1.75", "signal with controls": "1/9 (5.33)"}
{"CDR-L1": "KSQQSVLYESRNKNSVA", "CDR-L2": "FWSTRES", "CDR-L3": "QQYHRLPLS", "replicates, log10 nM": "4.44 / 3.90 / 4.32", "signal with controls": "4/9 (4.39)"}
{"CDR-L1": "KSSQSVLYESRNKNSVA", "CDR-L2": "WASEGES", "CDR-L3": "QQYHRLPLA", "replicates, log10 nM": "ND / 5.30 / ND", "signal with controls": "3/9 (4.37)"}
{"CDR-L1": "KWGQSVLYESRNKNSVA", "CDR-L2": "WASTRES", "CDR-L3": "MQYHRLPLS", "replicates, log10 nM": "ND / 3.67 / ND", "signal with controls": "1/9 (3.43)"}
{"CDR-L1": "KSSQSVLYEVRNKNYVA", "CDR-L2": "WASTIES", "CDR-L3": "QQYHRLPLS", "replicates, log10 nM": "ND / ND / 4.05", "signal with controls": "1/9 (3.59)"}
{"CDR-L1": "KSSESVLYESRNKNSVA", "CDR-L2": "WASTRES", "CDR-L3": "QQYHRLPLS", "replicates, log10 nM": "0.83 / 1.03 / 0.99", "signal with controls": "0/9"}
{"CDR-L1": "KSSQSVLYESRNKNSPA", "CDR-L2": "WALTRES", "CDR-L3": "TQYHRLPLS", "replicates, log10 nM": "ND / ND / ND", "signal with controls": "0/9"}
{"CDR-L1": "KSSQSVLYESPNKPSVA", "CDR-L2": "WASTRRS", "CDR-L3": "QQYHRLPLS", "replicates, log10 nM": "3.73 / 2.89 / 4.73", "signal with controls": "6/9 (4.04)"}
{"CDR-L1": "KSSQSVLYESRNKNSVA", "CDR-L2": "WASTRES", "CDR-L3": "QQYHRLPYS", "replicates, log10 nM": "1.25 / 1.46 / 1.29", "signal with controls": "3/9 (4.41)"}
{"CDR-L1": "KSPQSVLYESRNKTSVA", "CDR-L2": "WASTRES", "CDR-L3": "QQYHRLPCS", "replicates, log10 nM": "2.46 / 2.92 / 2.47", "signal with controls": "2/9 (3.95)"}
{"CDR-L1": "KSSQSVLYESRNKHSVA", "CDR-L2": "WAKTRES", "CDR-L3": "PQYHRLPLS", "replicates, log10 nM": "4.08 / 3.28 / 2.75", "signal with controls": "1/9 (4.06)"}
{"CDR-L1": "NSSQSVLYESRNKNSGA", "CDR-L2": "WASTRES", "CDR-L3": "QQYFRLPLS", "replicates, log10 nM": "ND / ND / ND", "signal with controls": "1/9 (3.62)"}
{"CDR-L1": "KSSESVLYESRNHNSVA", "CDR-L2": "WASTRES", "CDR-L3": "QQYHRLPLS", "replicates, log10 nM": "0.48 / 0.82 / 0.74", "signal with controls": "0/9"}
{"CDR-L1": "YSSQSVLYSSRNKNSLA", "CDR-L2": "WASTRES", "CDR-L3": "QQYHRLPLS", "replicates, log10 nM": "ND / ND / ND", "signal with controls": "0/9"}
{"CDR-L1": "KSSQSNLYESRSVNSVA", "CDR-L2": "WASTRES", "CDR-L3": "QQYHRLPLS", "replicates, log10 nM": "ND / 3.64 / 3.31", "signal with controls": "1/9 (3.79)"}
{"CDR-L1": "KMSQSELYESRNKNSVA", "CDR-L2": "WASTRES", "CDR-L3": "QQYHRLPLS", "replicates, log10 nM": "-0.26 / 0.16 / -0.18", "signal with controls": "3/9 (4.50)"}
{"CDR-L1": "KSSQSVLYEPRNKNVVA", "CDR-L2": "WASTRMS", "CDR-L3": "QQYHRLPLS", "replicates, log10 nM": "ND / 3.69 / ND", "signal with controls": "0/9"}

Extract of 2 entries:

| CDR-L1 | CDR-L2 | CDR-L3 | replicates, log10 nM | signal with controls |
|---|---|---|---|---|
| KSSQSVLYESRNKNSVN | WASTVES | PQYHRLPLS | ND / 5.15 / 4.02 | 1/9 (3.31) |
| KSSQSVLYESRNKNSPA | WALTRES | TQYHRLPLS | ND / ND / ND | 0/9 |